# Like-named read-outs stand apart in the source and are kept apart here.
# Target: T1, FPR1 (Homo sapiens, UniProt P21462)
# T1 sequence (P21462 1-350): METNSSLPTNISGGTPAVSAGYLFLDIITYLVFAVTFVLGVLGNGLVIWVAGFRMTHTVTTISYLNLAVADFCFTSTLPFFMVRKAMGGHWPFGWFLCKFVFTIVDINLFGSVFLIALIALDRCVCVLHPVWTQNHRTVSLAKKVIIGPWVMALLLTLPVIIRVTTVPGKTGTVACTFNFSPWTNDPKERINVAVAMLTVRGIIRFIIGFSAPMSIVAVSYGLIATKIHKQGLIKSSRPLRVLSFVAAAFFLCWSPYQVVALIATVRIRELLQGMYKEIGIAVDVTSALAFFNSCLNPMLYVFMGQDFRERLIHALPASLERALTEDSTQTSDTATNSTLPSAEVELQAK
# Assay: FPR1 receptor internalization in GFP-FPR1 HEK293T cells
# Format: cell-based
substance,measurement,setting,value
Formylmethionyl-leucyl-phenylalanine [fMLF],FPR1 internalization / signaling,,bind and induce internalization the receptor
same,FPR1 internalization / signaling,listed as FMLP,internalized

# — publication PMC8744071 (ACS infectious diseases, 2021)
